From ChEMBL document CHEMBL1125495, “Inhibitors of human renin with C-termini derived from amides and esters of alpha-mercaptoalkanoic acids” (J Med Chem, 1992)

Chains of the proteins cited; added tags and fusions are not shown. Lines headed by an entry give the natural chain unless they say otherwise; changes in a name come on top.
UniProt P00797: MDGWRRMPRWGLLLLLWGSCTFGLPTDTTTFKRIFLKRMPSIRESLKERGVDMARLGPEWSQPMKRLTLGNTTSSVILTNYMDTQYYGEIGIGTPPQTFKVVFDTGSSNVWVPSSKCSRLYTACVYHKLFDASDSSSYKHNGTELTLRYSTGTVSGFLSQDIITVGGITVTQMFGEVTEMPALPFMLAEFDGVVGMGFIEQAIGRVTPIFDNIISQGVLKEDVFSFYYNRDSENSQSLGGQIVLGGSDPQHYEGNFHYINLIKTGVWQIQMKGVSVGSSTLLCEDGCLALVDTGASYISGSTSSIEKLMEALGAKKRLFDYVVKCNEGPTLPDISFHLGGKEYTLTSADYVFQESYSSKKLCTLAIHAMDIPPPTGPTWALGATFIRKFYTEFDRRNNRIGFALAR

Target: Renin (Homo sapiens, UniProt P00797)
Test: Inhibition of human plasma renin
Format: cell-free

| SMILES | IC50 |
| --- | --- |
| CCOC(=O)[C@H](CC(C)C)SC[C@H](O)[C@H](CC1CCCCC1)NC(=O)[C@H](Cc1cnc[nH]1)NC(=O)[C@H](Cc1ccccc1)NC(=O)OC(C)(C)C | 288 nM |
| CCOC(=O)[C@@H](CC(C)C)SC[C@H](O)[C@H](CC1CCCCC1)NC(=O)[C@H](Cc1cnc[nH]1)NC(=O)[C@H](Cc1ccccc1)NC(=O)OC(C)(C)C | 305 nM |
